In ChEMBL document CHEMBL1687923, “Discovery of N-hydroxyindole-based inhibitors of human lactate dehydrogenase isoform A (LDH-A) as starvation agents against cancer cells” (J Med Chem, 2011) one finds Ki data, which are given here for one molecule.

In this assay the target is L-lactate dehydrogenase A chain (Homo sapiens, UniProt P00338). As to the kind of experiment: Inhibition of human LDH-A using pyruvate as substrate and NADH as cofactor at 125 uM after 5 mins by calorimetric assay relative to control.

`NC(=O)C(=O)O` [OXAMATE]: the Ki (in general, a measure of affinity in units of concentration, obtained from inhibition or displacement) was determined as 138 µM.
